From PMC12142581

Sequences of proteins named here, by UniProt entry; tags and fusion partners are left off. A change or cut given only in a name is not applied to a line headed by its entry. Residues count along the entry.
UniProt P20309, whole entry, looked up: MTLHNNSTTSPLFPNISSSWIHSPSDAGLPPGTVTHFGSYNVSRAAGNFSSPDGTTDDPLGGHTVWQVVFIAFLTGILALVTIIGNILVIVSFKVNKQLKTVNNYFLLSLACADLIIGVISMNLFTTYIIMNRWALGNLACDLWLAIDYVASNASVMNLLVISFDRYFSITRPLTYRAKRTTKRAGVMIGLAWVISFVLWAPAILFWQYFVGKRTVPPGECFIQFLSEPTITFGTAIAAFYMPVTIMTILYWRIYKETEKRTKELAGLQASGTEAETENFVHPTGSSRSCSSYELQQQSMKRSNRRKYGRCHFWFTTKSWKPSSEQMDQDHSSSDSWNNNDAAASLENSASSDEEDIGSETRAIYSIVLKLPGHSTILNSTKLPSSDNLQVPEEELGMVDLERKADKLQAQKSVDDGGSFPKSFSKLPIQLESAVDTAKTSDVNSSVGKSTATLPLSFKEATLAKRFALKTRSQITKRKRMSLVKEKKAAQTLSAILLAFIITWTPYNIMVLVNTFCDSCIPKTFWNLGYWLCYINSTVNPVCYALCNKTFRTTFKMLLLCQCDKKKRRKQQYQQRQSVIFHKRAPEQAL
UniProt P46098, 24-478 limits assumed: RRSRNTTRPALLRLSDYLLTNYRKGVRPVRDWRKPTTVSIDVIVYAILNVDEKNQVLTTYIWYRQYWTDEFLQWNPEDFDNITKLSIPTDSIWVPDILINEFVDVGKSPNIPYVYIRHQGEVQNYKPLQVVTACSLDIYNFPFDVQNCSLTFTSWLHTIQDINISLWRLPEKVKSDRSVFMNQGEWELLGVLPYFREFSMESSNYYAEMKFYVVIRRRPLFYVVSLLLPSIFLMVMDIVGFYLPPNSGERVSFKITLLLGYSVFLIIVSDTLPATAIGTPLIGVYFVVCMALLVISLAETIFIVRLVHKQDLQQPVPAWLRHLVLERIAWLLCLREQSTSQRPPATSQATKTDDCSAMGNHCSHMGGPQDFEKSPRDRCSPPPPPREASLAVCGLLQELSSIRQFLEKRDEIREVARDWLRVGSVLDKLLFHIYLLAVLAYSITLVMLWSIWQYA
UniProt P08913, whole entry, looked up: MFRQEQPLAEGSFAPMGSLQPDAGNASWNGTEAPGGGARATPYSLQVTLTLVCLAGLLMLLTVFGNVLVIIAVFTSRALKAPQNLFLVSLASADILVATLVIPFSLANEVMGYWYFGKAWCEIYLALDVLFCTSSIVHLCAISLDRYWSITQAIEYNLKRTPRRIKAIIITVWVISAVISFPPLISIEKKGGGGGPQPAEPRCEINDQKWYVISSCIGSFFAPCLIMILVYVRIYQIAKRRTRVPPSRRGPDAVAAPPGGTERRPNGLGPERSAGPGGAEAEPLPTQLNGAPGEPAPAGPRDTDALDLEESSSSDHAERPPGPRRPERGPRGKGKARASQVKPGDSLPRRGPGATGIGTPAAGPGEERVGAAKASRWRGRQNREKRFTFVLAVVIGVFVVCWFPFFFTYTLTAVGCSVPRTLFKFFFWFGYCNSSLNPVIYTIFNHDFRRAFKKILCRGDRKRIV
UniProt Q9Y5N1: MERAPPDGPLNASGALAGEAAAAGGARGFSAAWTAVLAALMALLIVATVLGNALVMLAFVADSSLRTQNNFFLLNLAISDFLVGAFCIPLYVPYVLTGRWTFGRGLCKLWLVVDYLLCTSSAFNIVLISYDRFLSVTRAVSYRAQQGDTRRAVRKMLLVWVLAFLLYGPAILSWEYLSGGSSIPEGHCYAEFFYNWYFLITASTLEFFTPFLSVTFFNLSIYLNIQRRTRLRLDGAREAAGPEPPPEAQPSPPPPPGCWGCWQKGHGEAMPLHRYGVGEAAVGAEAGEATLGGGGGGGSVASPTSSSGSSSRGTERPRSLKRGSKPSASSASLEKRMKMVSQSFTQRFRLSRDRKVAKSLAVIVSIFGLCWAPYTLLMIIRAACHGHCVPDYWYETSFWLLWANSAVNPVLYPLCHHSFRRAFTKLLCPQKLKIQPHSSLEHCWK
UniProt P46663: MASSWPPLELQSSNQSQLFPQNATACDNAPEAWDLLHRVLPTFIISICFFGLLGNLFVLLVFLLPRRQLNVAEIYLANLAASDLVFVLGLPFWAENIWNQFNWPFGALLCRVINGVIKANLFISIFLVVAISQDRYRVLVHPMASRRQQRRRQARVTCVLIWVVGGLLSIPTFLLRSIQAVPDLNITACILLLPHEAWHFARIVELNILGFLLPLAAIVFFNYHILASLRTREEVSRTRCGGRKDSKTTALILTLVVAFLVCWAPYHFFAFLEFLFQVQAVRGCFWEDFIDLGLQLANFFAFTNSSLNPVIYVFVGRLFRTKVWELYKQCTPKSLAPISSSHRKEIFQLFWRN
UniProt P23975, whole entry, looked up: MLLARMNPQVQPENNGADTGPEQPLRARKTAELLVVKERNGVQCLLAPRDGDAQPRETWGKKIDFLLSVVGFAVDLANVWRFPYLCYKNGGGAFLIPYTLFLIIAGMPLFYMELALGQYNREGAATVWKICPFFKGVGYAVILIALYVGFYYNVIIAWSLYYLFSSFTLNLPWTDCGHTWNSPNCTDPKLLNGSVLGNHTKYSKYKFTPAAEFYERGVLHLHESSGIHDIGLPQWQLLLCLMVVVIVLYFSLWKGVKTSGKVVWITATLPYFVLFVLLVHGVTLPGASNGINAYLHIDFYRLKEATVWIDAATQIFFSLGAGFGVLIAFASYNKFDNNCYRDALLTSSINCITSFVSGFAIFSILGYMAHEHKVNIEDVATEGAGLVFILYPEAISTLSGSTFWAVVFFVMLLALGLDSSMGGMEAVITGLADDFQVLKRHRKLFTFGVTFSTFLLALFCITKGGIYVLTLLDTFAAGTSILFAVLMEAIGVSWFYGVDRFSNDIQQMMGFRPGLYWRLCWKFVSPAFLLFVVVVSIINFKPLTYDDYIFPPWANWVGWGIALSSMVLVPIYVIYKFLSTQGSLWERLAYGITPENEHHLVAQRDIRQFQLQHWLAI
UniProt Q9Y271: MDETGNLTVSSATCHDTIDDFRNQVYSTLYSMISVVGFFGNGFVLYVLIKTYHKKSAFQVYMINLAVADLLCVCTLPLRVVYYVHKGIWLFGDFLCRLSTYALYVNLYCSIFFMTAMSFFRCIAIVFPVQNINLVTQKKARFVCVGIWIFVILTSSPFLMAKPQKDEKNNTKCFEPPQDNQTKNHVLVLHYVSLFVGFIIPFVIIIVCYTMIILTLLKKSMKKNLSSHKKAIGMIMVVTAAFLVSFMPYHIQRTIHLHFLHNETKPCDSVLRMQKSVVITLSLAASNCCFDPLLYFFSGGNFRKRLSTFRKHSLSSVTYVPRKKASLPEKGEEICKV
UniProt P35372, whole entry, looked up: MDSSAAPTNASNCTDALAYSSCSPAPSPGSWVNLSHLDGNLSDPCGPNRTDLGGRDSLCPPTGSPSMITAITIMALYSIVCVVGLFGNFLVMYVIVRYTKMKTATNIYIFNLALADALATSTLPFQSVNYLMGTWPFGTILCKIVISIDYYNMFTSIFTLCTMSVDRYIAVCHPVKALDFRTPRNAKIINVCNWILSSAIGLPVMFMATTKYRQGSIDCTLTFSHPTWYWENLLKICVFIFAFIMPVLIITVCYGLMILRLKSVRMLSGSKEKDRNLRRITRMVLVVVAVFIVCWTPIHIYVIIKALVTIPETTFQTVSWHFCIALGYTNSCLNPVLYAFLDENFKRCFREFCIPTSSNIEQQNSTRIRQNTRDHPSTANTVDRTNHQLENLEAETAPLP
UniProt P25100, whole entry, looked up: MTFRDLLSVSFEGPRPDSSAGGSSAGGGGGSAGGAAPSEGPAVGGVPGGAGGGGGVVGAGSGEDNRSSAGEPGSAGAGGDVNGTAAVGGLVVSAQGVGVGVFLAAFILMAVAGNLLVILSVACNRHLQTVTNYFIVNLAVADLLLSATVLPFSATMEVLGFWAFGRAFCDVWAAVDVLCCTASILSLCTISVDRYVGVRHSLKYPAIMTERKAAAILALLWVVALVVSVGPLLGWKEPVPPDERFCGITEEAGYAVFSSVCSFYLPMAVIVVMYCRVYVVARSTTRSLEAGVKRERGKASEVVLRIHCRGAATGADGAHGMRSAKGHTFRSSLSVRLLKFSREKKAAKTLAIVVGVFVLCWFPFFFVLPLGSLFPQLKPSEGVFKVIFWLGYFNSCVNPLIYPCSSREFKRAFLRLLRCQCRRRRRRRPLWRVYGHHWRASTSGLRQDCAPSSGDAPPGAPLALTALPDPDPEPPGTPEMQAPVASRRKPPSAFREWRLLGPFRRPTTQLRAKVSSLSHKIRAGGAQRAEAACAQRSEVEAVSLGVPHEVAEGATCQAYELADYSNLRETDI
UniProt P25103, whole entry, looked up: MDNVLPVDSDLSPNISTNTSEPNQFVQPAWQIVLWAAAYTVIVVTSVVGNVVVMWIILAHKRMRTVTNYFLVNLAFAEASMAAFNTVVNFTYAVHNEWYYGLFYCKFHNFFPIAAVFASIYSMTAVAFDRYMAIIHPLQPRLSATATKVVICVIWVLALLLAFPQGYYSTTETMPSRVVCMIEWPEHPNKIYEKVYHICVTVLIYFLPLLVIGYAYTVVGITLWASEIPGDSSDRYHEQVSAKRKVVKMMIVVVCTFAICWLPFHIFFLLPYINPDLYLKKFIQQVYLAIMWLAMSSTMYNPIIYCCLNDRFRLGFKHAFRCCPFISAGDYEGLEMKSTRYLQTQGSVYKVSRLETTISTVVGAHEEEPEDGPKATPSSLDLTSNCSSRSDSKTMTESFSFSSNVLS
UniProt P25101, 21-427 limits assumed: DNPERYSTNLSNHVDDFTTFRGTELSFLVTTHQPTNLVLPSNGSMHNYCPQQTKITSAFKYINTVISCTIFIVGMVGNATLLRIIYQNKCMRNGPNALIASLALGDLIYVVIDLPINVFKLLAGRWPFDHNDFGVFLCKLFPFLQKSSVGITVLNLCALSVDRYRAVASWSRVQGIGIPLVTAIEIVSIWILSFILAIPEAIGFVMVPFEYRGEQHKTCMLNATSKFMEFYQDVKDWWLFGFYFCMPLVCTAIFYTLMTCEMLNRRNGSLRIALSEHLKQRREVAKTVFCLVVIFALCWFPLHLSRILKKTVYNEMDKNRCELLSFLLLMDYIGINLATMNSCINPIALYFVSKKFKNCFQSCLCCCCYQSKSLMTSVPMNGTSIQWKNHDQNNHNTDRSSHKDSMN
UniProt P49146, whole entry, looked up: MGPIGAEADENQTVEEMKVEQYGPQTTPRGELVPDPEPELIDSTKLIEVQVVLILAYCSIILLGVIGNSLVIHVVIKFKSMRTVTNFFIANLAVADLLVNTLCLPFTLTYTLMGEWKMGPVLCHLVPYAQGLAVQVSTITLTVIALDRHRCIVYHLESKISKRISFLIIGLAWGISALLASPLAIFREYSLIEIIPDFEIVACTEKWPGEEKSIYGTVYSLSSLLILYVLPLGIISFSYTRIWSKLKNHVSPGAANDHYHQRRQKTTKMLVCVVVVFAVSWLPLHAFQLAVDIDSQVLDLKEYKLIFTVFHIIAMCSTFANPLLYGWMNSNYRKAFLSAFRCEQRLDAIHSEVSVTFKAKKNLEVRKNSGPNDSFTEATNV
UniProt P25021, whole entry, looked up: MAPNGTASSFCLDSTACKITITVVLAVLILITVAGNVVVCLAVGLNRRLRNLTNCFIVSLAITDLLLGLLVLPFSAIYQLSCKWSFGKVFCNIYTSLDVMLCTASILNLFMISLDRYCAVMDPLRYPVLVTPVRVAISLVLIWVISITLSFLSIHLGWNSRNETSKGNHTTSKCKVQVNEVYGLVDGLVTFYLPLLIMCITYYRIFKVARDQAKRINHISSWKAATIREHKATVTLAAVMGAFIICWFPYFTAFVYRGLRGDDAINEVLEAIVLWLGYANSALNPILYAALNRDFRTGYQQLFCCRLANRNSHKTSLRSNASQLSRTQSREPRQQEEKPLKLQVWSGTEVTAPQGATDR
UniProt Q99720, whole entry, looked up: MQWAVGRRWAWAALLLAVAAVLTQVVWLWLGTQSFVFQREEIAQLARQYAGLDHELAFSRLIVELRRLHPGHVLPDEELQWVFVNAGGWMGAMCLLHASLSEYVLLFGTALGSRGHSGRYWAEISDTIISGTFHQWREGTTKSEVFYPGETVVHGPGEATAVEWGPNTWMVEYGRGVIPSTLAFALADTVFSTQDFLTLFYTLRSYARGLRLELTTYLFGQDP
UniProt Q07001: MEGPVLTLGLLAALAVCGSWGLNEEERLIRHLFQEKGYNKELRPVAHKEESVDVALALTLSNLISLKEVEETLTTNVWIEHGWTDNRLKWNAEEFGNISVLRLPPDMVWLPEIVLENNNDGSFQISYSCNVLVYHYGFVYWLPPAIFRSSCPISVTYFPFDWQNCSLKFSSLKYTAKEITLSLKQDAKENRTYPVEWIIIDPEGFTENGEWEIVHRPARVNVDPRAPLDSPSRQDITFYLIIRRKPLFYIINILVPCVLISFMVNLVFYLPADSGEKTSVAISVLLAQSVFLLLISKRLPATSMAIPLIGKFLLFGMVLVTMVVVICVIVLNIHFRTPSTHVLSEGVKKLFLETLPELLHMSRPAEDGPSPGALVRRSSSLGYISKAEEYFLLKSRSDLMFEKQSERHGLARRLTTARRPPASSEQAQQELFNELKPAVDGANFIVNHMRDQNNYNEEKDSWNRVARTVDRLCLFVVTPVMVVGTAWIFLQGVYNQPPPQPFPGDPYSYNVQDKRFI

What was measured:
[1] = test system: amphetamine-induced hyperlocomotion; experiment: Amphetamine-induced hyperlocomotion (AHL); conditions: for brain:plasma mean Kp / brain:plasma mean Kp,uu / mean C brain / mean C brain,u / mean C plasma / mean C plasma,u: 1.5 h
[2] = Fraction of CYP-mediated metabolism (fm,CYP), hepatocytes ± ABT; conditions: for fraction of CYP-mediated metabolism: 0.3 µM
human M3 = human M3 (Homo sapiens, UniProt P20309); experiment: Calcium mobilization assay, CHO cells, EC20 acetylcholine
[3] = Intrinsic clearance in liver microsomes (substrate depletion)
[4] = test system: 68 off-target GPCRs, ion channels and transporters; experiment: Lead Profiling Screen (Eurofins Panlabs), radioligand displacement, whole panel; conditions: 10 μM
[5] = target: Serotonin (5-Hydroxytryptamine) 5-HT3 (Homo sapiens, UniProt P46098); experiment: Lead Profiling Screen
Adrenergic α2A = Adrenergic α2A (Homo sapiens, UniProt P08913); experiment: Lead Profiling Screen
Glutamate, NMDA, Agonism = experiment: Lead Profiling Screen
Histamine H3 = Histamine H3 (Homo sapiens, UniProt Q9Y5N1); experiment: Lead Profiling Screen
[6] = target: Transporter, Dopamine (DAT) (Homo sapiens, UniProt Q01959); experiment: Lead Profiling Screen
Muscarinic M2 = Muscarinic M2 (Homo sapiens, UniProt P08172); experiment: Lead Profiling Screen
[7] = test system: Calcium Channel L-Type, Dihydropyridine; experiment: Lead Profiling Screen
[8] = test system: Glutamate, NMDA, Phencyclidine; experiment: Lead Profiling Screen
[9] = target: Epidermal Growth Factor (EGF) (Homo sapiens, UniProt P00533); experiment: Lead Profiling Screen
Glutamate, NMDA, Glycine = Glutamate, NMDA, Glycine (Rattus norvegicus, UniProt P35439); experiment: Lead Profiling Screen
Bradykinin B1 = Bradykinin B1 (Homo sapiens, UniProt P46663); experiment: Lead Profiling Screen
[10] = target: Transporter, Norepinephrine (NET) (Homo sapiens, UniProt P23975); experiment: Lead Profiling Screen
Thyroid Hormone = experiment: Lead Profiling Screen
[11] = target: Leukotriene, Cysteinyl CysLT1 (Homo sapiens, UniProt Q9Y271); experiment: Lead Profiling Screen
Opiate μ (OP3, MOP) = Opiate μ (OP3, MOP) (Homo sapiens, UniProt P35372); experiment: Lead Profiling Screen
Adrenergic α1D = Adrenergic α1D (Homo sapiens, UniProt P25100); experiment: Lead Profiling Screen
Tachykinin NK1 = Tachykinin NK1 (Homo sapiens, UniProt P25103); experiment: Lead Profiling Screen
Endothelin ETA = Endothelin ETA (Homo sapiens, UniProt P25101); experiment: Lead Profiling Screen
Potassium Channel [KATP] = experiment: Lead Profiling Screen
Muscarinic M3 = Muscarinic M3 (Homo sapiens, UniProt P20309); experiment: Lead Profiling Screen
Neuropeptide Y Y2 = Neuropeptide Y Y2 (Homo sapiens, UniProt P49146); experiment: Lead Profiling Screen
Histamine H2 = Histamine H2 (Homo sapiens, UniProt P25021); experiment: Lead Profiling Screen
Sigma σ1 = Sigma σ1 (Homo sapiens, UniProt Q99720); experiment: Lead Profiling Screen
Adrenergic β2 = Adrenergic β2 (Homo sapiens, UniProt P07550); experiment: Lead Profiling Screen
[12] = target: Nicotinic Acetylcholine α1, Bungarotoxin (Homo sapiens, UniProt P02708+P07510+Q07001); experiment: Lead Profiling Screen
[13] = predicted from microsomal CLint

SMILES: Cc1nnc2sc3c(NCc4ccc(C(C)(C)O)cc4)ncnc3c2c1C
- mean reversal of AHL ([1]; 0.1 mg/kg PO): 8.1%
- brain:plasma mean Kp ([1]; 0.1 mg/kg PO): 0.26
- brain:plasma mean Kp,uu ([1]; 0.1 mg/kg PO): 0.18
- mean C brain ([1]; 0.1 mg/kg PO): 0.05 µM
- mean C brain,u ([1]; 0.1 mg/kg PO): 0.71 nM
- mean C plasma ([1]; 0.1 mg/kg PO): 0.19 µM
- mean C plasma,u ([1]; 0.1 mg/kg PO): 4.03 nM
- mean reversal of AHL ([1]; 0.3 mg/kg PO): 33%
- brain:plasma mean Kp ([1]; 0.3 mg/kg PO): 0.32
- brain:plasma mean Kp,uu ([1]; 0.3 mg/kg PO): 0.21
- mean C brain ([1]; 0.3 mg/kg PO): 0.25 µM
- mean C brain,u ([1]; 0.3 mg/kg PO): 3.44 nM
- mean C plasma ([1]; 0.3 mg/kg PO): 0.78 µM
- mean C plasma,u ([1]; 0.3 mg/kg PO): 16.3 nM
- mean reversal of AHL ([1]; 0.56 mg/kg PO): 26%
- brain:plasma mean Kp ([1]; 0.56 mg/kg PO): 0.29
- brain:plasma mean Kp,uu ([1]; 0.56 mg/kg PO): 0.19
- mean C brain ([1]; 0.56 mg/kg PO): 0.33 µM
- mean C brain,u ([1]; 0.56 mg/kg PO): 4.65 nM
- mean C plasma ([1]; 0.56 mg/kg PO): 1.14 µM
- mean C plasma,u ([1]; 0.56 mg/kg PO): 23.9 nM
- mean reversal of AHL ([1]; 1 mg/kg PO): 51%
- brain:plasma mean Kp ([1]; 1 mg/kg PO): 0.34
- brain:plasma mean Kp,uu ([1]; 1 mg/kg PO): 0.23
- mean C brain ([1]; 1 mg/kg PO): 0.68 µM
- mean C brain,u ([1]; 1 mg/kg PO): 9.58 nM
- mean C plasma ([1]; 1 mg/kg PO): 1.99 µM
- mean C plasma,u ([1]; 1 mg/kg PO): 41.8 nM
- brain:plasma mean Kp ([1]; 3 mg/kg PO): 0.3
- brain:plasma mean Kp,uu ([1]; 3 mg/kg PO): 0.2
- mean C brain ([1]; 3 mg/kg PO): 2.07 µM
- mean C brain,u ([1]; 3 mg/kg PO): 29.0 nM
- mean C plasma ([1]; 3 mg/kg PO): 6.89 µM
- mean C plasma,u ([1]; 3 mg/kg PO): 145 nM
- mean reversal of AHL ([1]; 10 mg/kg PO): 63%
- brain:plasma mean Kp ([1]; 10 mg/kg PO): 0.34
- brain:plasma mean Kp,uu ([1]; 10 mg/kg PO): 0.23
- mean C brain ([1]; 10 mg/kg PO): 4.90 µM
- mean C plasma ([1]; 10 mg/kg PO): 14.2 µM
- mean C plasma,u ([1]; 10 mg/kg PO): 299 nM
- mean C brain,u ([1]; 10 mg/kg PO, listed as VU6008055): 69 nM and 68.6 nM
- MED, AHL ([1]; PO, 30 min pretreatment, rat): 0.3 mg/kg
- Mean % Reversal of AHL ([1]; single acute dose 3 mg/kg p.o., listed as VU6008055, 3 mg/kg): 45.7%
- non-CYP-mediated metabolism ([2]; NHP hepatocytes): 56%
- fraction of CYP-mediated metabolism ([2]; dog hepatocytes): 87%
- non-CYP-mediated metabolism ([2]; human hepatocytes): 51%
- fraction of CYP-mediated metabolism ([2]; human hepatocytes, ± ABT): 49%
- fraction of CYP-mediated metabolism ([2]; monkey hepatocytes, ± ABT): 44%
- fraction of CYP-mediated metabolism ([2]; rat hepatocytes): 93%
- activity (human M3): inactive
- CLint, human ([3]; microsomes): 17 mL/min/kg
- CLint, rat ([3]; microsomes): 89 mL/min/kg
- CLhep, human [3, 13]: 9 mL/min/kg
- CLhep, rat [3, 13]: 39 mL/min/kg
- inhibition across all off-targets screened [4]: ≤ 50%
- % inh at 10 μM [5]: -3%
- % inh at 10 μM (Adrenergic α2A): -0%
- % inh at 10 μM (Glutamate, NMDA, Agonism): 6%
- % inh at 10 μM (Histamine H3): 21%
- % inh at 10 μM [6]: 11%
- % inh at 10 μM (Muscarinic M2): 9%
- % inh at 10 μM [7]: -9%
- % inh at 10 μM [8]: -12%
- % inh at 10 μM [9]: 2%
- % inh at 10 μM (Glutamate, NMDA, Glycine): 2%
- % inh at 10 μM (Bradykinin B1): -10%
- % inh at 10 μM [10]: 36%
- % inh at 10 μM (Thyroid Hormone): -4%
- % inh at 10 μM [11]: 31%
- % inh at 10 μM (Opiate μ (OP3, MOP)): 4%
- % inh at 10 μM (Adrenergic α1D): -4%
- % inh at 10 μM (Tachykinin NK1): -5%
- % inh at 10 μM (Endothelin ETA): 7%
- % inh at 10 μM (Potassium Channel [KATP]): -10%
- % inh at 10 μM (Muscarinic M3): 3%
- % inh at 10 μM (Neuropeptide Y Y2): 5%
- % inh at 10 μM (Histamine H2): -9%
- % inh at 10 μM (Sigma σ1): -1%
- % inh at 10 μM (Adrenergic β2): 6%
- % inh at 10 μM [12]: -2%

Where “and” joins values, the source holds several entries; their conditions need not be identical. Equal values may be shown once.
